Earlier results on 1 compound are cited in patent US10000498B2, “Selective proton coupled folate transporter and folate receptor, and GARFTase inhibitor compounds and methods of using the same” (Duquesne University of the Holy Spirit, priority 2008, dated 2018).

The chains behind the UniProt entries cited, without tags or fusion partners. Residues count along the entry.
UniProt Q64737, 2-1010 limits assumed: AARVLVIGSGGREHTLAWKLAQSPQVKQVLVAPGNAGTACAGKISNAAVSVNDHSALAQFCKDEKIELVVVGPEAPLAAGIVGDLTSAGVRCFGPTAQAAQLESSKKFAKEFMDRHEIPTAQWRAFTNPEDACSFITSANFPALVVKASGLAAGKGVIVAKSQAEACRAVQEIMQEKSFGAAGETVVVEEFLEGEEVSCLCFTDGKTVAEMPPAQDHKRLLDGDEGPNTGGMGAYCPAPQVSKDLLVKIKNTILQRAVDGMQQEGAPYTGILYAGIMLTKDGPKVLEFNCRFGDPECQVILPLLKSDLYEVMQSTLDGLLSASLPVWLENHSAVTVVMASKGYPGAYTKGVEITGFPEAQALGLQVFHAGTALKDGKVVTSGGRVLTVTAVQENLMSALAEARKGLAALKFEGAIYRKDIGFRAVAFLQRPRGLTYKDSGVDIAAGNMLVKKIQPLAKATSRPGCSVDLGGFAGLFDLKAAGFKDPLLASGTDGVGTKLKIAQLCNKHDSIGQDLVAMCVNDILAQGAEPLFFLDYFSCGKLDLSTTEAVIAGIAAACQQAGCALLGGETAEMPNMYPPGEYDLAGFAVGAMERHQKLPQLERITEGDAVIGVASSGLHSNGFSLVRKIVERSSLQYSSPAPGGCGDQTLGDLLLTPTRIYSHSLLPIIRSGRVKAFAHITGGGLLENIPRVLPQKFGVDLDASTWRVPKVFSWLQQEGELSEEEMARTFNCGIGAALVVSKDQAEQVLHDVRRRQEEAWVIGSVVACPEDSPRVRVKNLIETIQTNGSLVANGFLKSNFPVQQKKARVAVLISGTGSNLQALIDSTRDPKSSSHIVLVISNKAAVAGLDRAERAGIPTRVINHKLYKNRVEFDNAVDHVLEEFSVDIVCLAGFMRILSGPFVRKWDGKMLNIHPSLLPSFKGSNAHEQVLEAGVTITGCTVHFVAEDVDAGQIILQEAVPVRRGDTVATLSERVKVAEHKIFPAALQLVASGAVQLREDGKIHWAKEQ

In this series the target is purified recombinant mouse GARFTase (Mus musculus, UniProt Q64737). The following applies: Deng et al., 2008; cited from earlier work.

Take `Nc1nc2[nH]c(CCCc3ccc(C(=O)NC(CCC(=O)O)C(=O)O)cc3)cc2c(=O)[nH]1` (stereo not shown): the “GARFTase inhibition previously reported” value was “potently inhibit GARFTase”.
